# In paper PMC5080790:
# T1: Mutant Atro box peptide (two leucines to alanines)
# T1 chain: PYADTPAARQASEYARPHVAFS
# B1: m1 (binder); m4 (target) R274G (NR2E1 LBD); L8A; L11A (Atro box peptide) (protein)
# chain: VSTTPERQTLVSLAQPTPKYPHEVNGTPMYLYEVATESVCESAARLLFMSIKWAKSVPAFSTLSLQDQLMLLEDAWRELFVLGIAQWAIPVDANTLLAVSGMNGDNTDSQKLNKIISEIQALQEVVAGFRQLRLDATEFACLKCIVTFKAVPTHSGSELRSFRNAAAIAALQDEAQLTLNSYIHTRYPTQPCRFGKLLLLLPALRSISPSTIEEVFFKKTIGNVPITRLLSDMYKSSDI
# B2: m1 (binder); m4 (target) R276Q (NR2E1 LBD); L8A; L11A (Atro box peptide) (protein)
# chain: MSKPAGSTSRILDIPCKVCGDRSSGKHYGVYACDGCSGFFKRSIRRNRTYVCKSGNQGGCPVDKTHRNQCRACRLKKCLEVNMNKDAVQHERGPRTSTIRKQVALYFRGHKEENGAAAHFPSAALPAPAFFTAVTQLEPHGLELAAVSTTPERQTLVSLAQPTPKYPHEVNGTPMYLYEVATESVCESAARLLFMSIKWAKSVPAFSTLSLQDQLMLLEDAWRELFVLGIAQWAIPVDANTLLAVSGMNGDNTDSQKLNKIISEIQALQEVVARFQQLRLDATEFACLKCIVTFKAVPTHSGSELRSFRNAAAIAALQDEAQLTLNSYIHTRYPTQPCRFGKLLLLLPALRSISPSTIEEVFFKKTIGNVPITRLLSDMYKSSDI
# Biological target: T1, Mutant Atro box peptide (two leucines …)
# Test: MARCoNI array
# Details: chain shown with the change; cell lysates from HEK293 cells; n = 3; parent: est. 270; read off a plot
row,Binder,response
1,B1,4 AU
2,B2,6 AU
